According to patent US20070202079A1, “Therapeutic compositions and methods useful in modulating protein tyrosine phosphatases” (priority 2006, published 2007):

System: WM9 cells
Assay: WM9 cell growth, MTT
Type: cell-based, human
Settings: day 6
Protocol: For cell proliferation assays, cells were grown in 10% FCS culture medium containing various amounts of IFNs and/or sodium stibogluconate in 96 well plates and cultured at 37° C. for 3 or 6 days as indicated. The numbers of viable cells in proliferation assays were determined by MTT assays as described in Phatak et al., J. Immunol. 167, 3391 (2001). […]
NIH3T3 (Yi, et al., Blood 85, 87 (1995)), WM9 (Forsberg, et al., Proc. Nat. Acad Sci. USA 90, 393 (1993)), DU145 (Mickey, et al., Cancer Res. 37, 4049 (1977)), LoVo (Drewinko, et al., Cancer Res. 36, 467 (1976)), HEY (Buick, et al., Cancer Res. 45, 3668 (1985)), U251 (Yoshida, et al., Cancer 50, 410 (1982)), A549 (Giard, et al., J. Natl. Cancer Inst. 51, 1417 (1973)) and SK-N-SH (Helson, et al., Cancer Res. 35, 2594 (1975)) cell lines have been described and were cultured in RPMI 1640 supplemented with 10% fetal calf serum (FCS). For measurement of sodium stibogluconate effects on cell growth in vitro, cells were cultured in the absence (−) or presence (+) of various amounts of sodium stibogluconate for 6 days with viable cells quantified by MTT assays (Mosmann, J. Immunol. Methods 65, 55 (1983)). Percentages of growth inhibition by sodium stibogluconate were calculated (.+−.x%).

B1: IFN-beta: recombinant human IFN-beta (protein, UniProt P01574 22-187, looked up)
Interferon beta: MSYNLLGFLQRSSNFQCQKLLWQLNGRLEYCLKDRMNFDIPEEIKQLQQFQKEDAALTIYEMLQNIFAIFRQDSSSTGWNETIVENLLANVYHQINHLKTVLEEKLEKEDFTRGKLMSSLHLKRYYGRILHYLKAKEYSHCAWTIVRVEILRNFYFINRLTGYLRN
With B1 the “growth of WM9 cells with IFNs” value was “more potently”.
